Read-outs that look alike come from different tables or passages of the source.

The text below walks through data of patent publication US20200206304A1, “METHODS AND COMPOSITIONS FOR EFFICIENT DELIVERY THROUGH MULTIPLE BIO BARRIERS” (Cedars-Sinai Medical Center, priority 2017, published 2020).

Series [1] deals with blood-brain barrier (BBB). The settings on record: transgenic mice vs normal mice, doses 2×-8×.
The test system of a further series is Brain (other hemisphere). The settings on record: 2 h, PBS background subtracted.
In series [2] the test system is blood-brain barrier (BBB). Nature of the series: BBB penetration: nanoconjugate fluorescence in brain parenchyma of healthy mice by optical imaging. The note with it: i.v. 0.068-0.548 μmol/kg, 120 min, cortex, midbrain, hippocampus.
Series [3] is described as follows: Dynamic light scattering, hydrodynamic diameter and PDI. Format: physicochemical. The note with it: DLS in PBS; conjugates without attached rhodamine. As to the method: Dynamic Light Scattering: Synthesized conjugates were characterized using a Zetasizer Nano ZS90 (Malvern Instruments, Malvern, UK). Ten microliter aliquots of nanoconjugate samples were diluted in 0.99 mL PBS and were measured 3 times using a clear cuvette. Data represent the mean of three measurements and polydispersity index.

Series [4] in a line: Zeta potential measurements (Zetasizer Nano ZS90). Format: physicochemical. The settings on record: in PBS; voltage 150 mV. How it is done: Zeta Potential Measurements: Synthesized conjugates were characterized with respect to their ζ potential using a Zetasizer Nano ZS90 (Malvern Instruments, Malvern, UK). Ten microliter aliquots of nanoconjugate samples were diluted in 0.99 mL PBS, and the voltage applied was 150 mV. Data represent the mean of three measurements±their standard deviation.

The conditions of series [5]: i.v. 0.068 μmol/kg; single exponential decay fit.

On to PMLA/LLL/rhodamine [P/LLL], for which the “BBB permeation efficacy in AD brain (in words)” value in series [1] is reported as “A decrease was not observed”. The figures for the “Brain (other hemisphere) fluorescence” value with Brain (other hemisphere) (dose 1X) and with Brain (other hemisphere) (dose 4X) were 1.0 and 5.1, respectively. The “BBB penetration / nanoconjugate fluorescence in brain parenchyma (in words)” value in series [2] was “penetrates the BBB even without a peptide moiety”. Moreover, the “Hydrodynamic diameter (volume mode)” value in series [3] is reported as 2.68 nm. In series [4], the ζ potential is −16.5 mV. The substance also showed a serum half-life in series [5] of 1.98 h.
